Experiment: Area under the curve (AUC) and increase ratio (ER) of FD-4 in plasma after oral administration to Wistar rats
Description: Next, FD-4 was orally administered to Wistar rats using an oral sonde so that the dosage was 0.3 mg/kg. After the administration of the sample, blood was collected six times in total until six hours after the administration of the sample, and plasma was fractionated.
It is noted that “AUCt” is AUC (ng·h/mL) of the test preparation, and “dosage t” is dosage (mg/kg) of the test preparation (target data of the test preparation obtained in the above 2).

Substance: fluorescein isothiocyanate-dextran 4 [Comparative Example 4]
- ER (increase ratio of AUC in consideration of dosage) (FD-4 dosage 5.0 mg/kg, based on Comparative Example 4 at 0.3 mg/kg): 0.96
- concentration of FD-4 in plasma, Time 0.25 hr (Wistar rats, oral, FD-4 dosage 0.3 mg/kg, 0.25 hr after administration): 3.0
- concentration of FD-4 in plasma, Time 0.5 hr (Wistar rats, oral, FD-4 dosage 0.3 mg/kg, 0.5 hr after administration): 4.1
- concentration of FD-4 in plasma, Time 1 hr (Wistar rats, oral, FD-4 dosage 0.3 mg/kg, 1 hr after administration): 3.0
- concentration of FD-4 in plasma, Time 2 hr (Wistar rats, oral, FD-4 dosage 0.3 mg/kg, 2 hr after administration): 4.2
- concentration of FD-4 in plasma, Time 4 hr (Wistar rats, oral, FD-4 dosage 0.3 mg/kg, 4 hr after administration): 4.8
- concentration of FD-4 in plasma, Time 6 hr (Wistar rats, oral, FD-4 dosage 0.3 mg/kg, 6 hr after administration): 4.0
